Source: PubChem BioAssay
In the library only some 1.1% were active in any assay of this set; here they are far more common.
miR-21 reporter = raises the signal of a miR-21 reporter | HeLa miR-21 FLuc reporter, luciferase, 48 h | Potency, µM (highest dose often 38.3 µM), without a hit: at the top dose reporter change, positive = more light | 340,000 tested, under 10 active; active = well fitted rising curve with a large enough effect; inconclusive = small, poorly fitted or top-dose-only effect; inactive = no such curve, though single readings can be large or run the other way;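 note: % of control where 0% means no effect; miR-21 action dims this reporter so a rising signal means less miR-21 action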
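Compounds were titrated across several concentrations (up to approximately 40 uM) and incubated 48 hours with HeLa miR-21-FLuc reporter cells (miR-21 target sequence downstream of FLuc, endogenous miR-21). Readout was firefly luciferase luminescence after lytic detection reagent.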
Anesthetic bind = candidate novel general anesthetic via apoferritin binding. apoferritin/1-aminoanthracene competitive binding, fluorescence. Potency, µM (highest dose often 77.5 µM), without a hit: at the top dose activity change, negative = displacement, hits mostly inhibitors. P02791. 0.074% of 350,000 active; also: potency is read from the fitted curve at half-maximal effect; % is scaled to controls: 0 for no effect and ±100 for the full control effect; nearly all actives have a fitted effect of over 20% in size
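Probe: 1-aminoanthracene (50% saturated, PBS). Protein: horse-spleen apoferritin, 10 uM. Incubation: 10 min, room temperature. Detection: 380 nm excitation, 535 nm emission. Analysis: normalized response, four-parameter Hill.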
BRCA1 expr act = increases BRCA1 expression | Potency, µM (titrated, usually from 46.1 µM), for inactives: top-dose activation, most hits filed as activators | AID 624202 | 1.1% of 380,000 active | MCF7-BRCA1-FFLuc reporter, luminescence, 48 h; response scale: scaled: vehicle 0%, 10 µM genistein 100%; also: potency is read from the fitted curve at half-maximal effect; nearly all actives have a fitted effect of over 80% in size
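Luminescence from a BRCA1-driven firefly luciferase in MCF7 cells was the read-out, taken 15 min after substrate addition following 48 h compound exposure at 37 °C. Data were normalized to a 10 microM genistein control and DMSO vehicle.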
p53 reactivation = re-activators of mutant p53 | H1299 p53-A138V BP100-luciferase reporter, luminescence, 24 h | Potency, µM (highest dose often 92.2 µM), inactives show at the top dose activity change, positive = activation, hits mostly activators | AID 504706 | 0.063% of 320,000 active; also: potency is read from the fitted curve at half-maximal effect; % of control where 0% means no effect; nearly all actives have a fitted effect of over 45% in size
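H1299 (p53-null), stable ts p53-A138V + BP100-Luc; 1000 cells/well, Opti-MEM/10% FBS; cpd 4 pt, 1:5; 24 h, 37 deg C, 5% CO2; detection reagent 10 min RT; luminescence.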
The depositor's hits bear a star; u = inconclusive; x = not tested or not shown. Calls follow the shape of the dose curve; as a rule, active = well fitted curve in the direction sought with a large enough effect; inconclusive = small, poorly fitted or top-dose-only effect, or another doubt; inactive = no such curve, though single readings can be large; an effect the other way counts as inactive or inconclusive.

item	molecule	miR-21 reporter	Anesthetic bind	BRCA1 expr act	p53 reactivation
1	Clc1ccc(OCc2cn3ccccc3n2)c2ncccc12	-66.3%	-10.8%	3.16µM*	0.4%
2	CCOc1ccc(C2c3[nH]c4ccccc4c3CCN2C(=O)Cc2cccc(OCC)c2OCC)cc1 (stereo unspecified)	17.7%	89.4%	x	x
3	Cc1ccc(NC(=S)c2ccccc2)cc1	-68.0%	-15.7%	1.26µM*	u
4	Cc1ccc(S(=O)(=O)/N=C(/NC(=S)Nc2ccccc2)c2ccccc2)cc1	-36.5%	-6.0%	u	u
5	Cc1ccc(NC(=S)N/C(=N/S(=O)(=O)c2ccccc2)c2ccccc2)cc1	-45.8%	-23.0%	12.6µM*	u
6	O=C(Cc1ccccc1)c1ccc(O)cc1	x	x	11.2µM*	x
7	O=C(CCc1ccccc1)Nc1ccc(N2CCOCC2)cc1	-25.7%	-11.2%	u	6.8%
8	O=C(Cc1ccccc1)c1ccc(N2CCOCC2)cc1	x	x	11.2µM*	x
9	Cc1cccc(CNC(=O)c2ccc3nc(-c4ccccc4)c(-c4ccccc4)nc3c2)c1	-3.6%	-4.1%	x	x
10	COc1ccc2nc3ccccc3nc2c1	-40.2%	126.0%	12.6µM*	12.2%

Records 6 to 10, quoted:
item	molecule	miR-21 reporter	Anesthetic bind	BRCA1 expr act	p53 reactivation
6	O=C(Cc1ccccc1)c1ccc(O)cc1	x	x	11.2µM*	x
7	O=C(CCc1ccccc1)Nc1ccc(N2CCOCC2)cc1	-25.7%	-11.2%	u	6.8%
8	O=C(Cc1ccccc1)c1ccc(N2CCOCC2)cc1	x	x	11.2µM*	x
9	Cc1cccc(CNC(=O)c2ccc3nc(-c4ccccc4)c(-c4ccccc4)nc3c2)c1	-3.6%	-4.1%	x	x
10	COc1ccc2nc3ccccc3nc2c1	-40.2%	126.0%	12.6µM*	12.2%

(cont.)
item	molecule	miR-21 reporter	Anesthetic bind	BRCA1 expr act	p53 reactivation
11	Cc1cc(C(=O)COC(=O)c2cc(Cl)ccc2N)c(C)n1Cc1ccco1	-70.1%	-4.0%	2.82µM*	u
12	COc1ccc(CN2CCC(N(CCc3ccccc3)Cc3ccccc3)CC2)c(OC)c1	u	-17.8%	-86.2%	0.9%
13	CC1(C)CC(=O)C(C2C3=C(CC(C)(C)CC3=O)Oc3ccc4ccccc4c32)C(=O)C1 (stereo unspecified)	-1.6%	-3.2%	7.94µM*	u
14	CC1(C)CC(=O)C(C2C3=C(CC(C)(C)CC3=O)Oc3ccccc32)C(=O)C1 (stereo unspecified)	1.6%	-2.6%	0.2%	0.0%
15	CC(C)CCNC(=O)C(=O)Nc1ccccc1	-60.1%	-14.0%	8.91µM*	25.4%
16	CC(C)CCNC(=O)c1ccc(-c2ccccc2)cc1	-65.2%	-4.2%	x	4.6%
17	Cc1c(S(=O)(=O)c2cccc(Cl)c2)nnn1-c1cccc(C(F)(F)F)c1	1.1%	2.2%	-15.7%	x
18	CC1Oc2ccccc2N(CC(=O)c2ccccc2)C1=O (stereo unspecified)	-20.1%	u	19.1%	u
19	Cc1ccc(C(=O)CN2C(=O)C(C)Oc3ccccc32)cc1 (stereo unspecified)	-39.9%	u	11.2µM*	u
20	COc1ccc(S(=O)(=O)N2CCCCCC2)cc1NS(=O)(=O)c1cc(C(=O)O)cc(C)c1C	x	x	-12.8%	-1.3%

item	molecule	miR-21 reporter	Anesthetic bind	BRCA1 expr act	p53 reactivation
21	COC(=O)c1ccc(C(=O)Nc2ccc(C(C)C)cc2N)cc1	-37.8%	-7.9%	11.2µM*	14.9%
22	COC(=O)c1ccc(C(=O)NN)cc1	-7.7%	-10.0%	-5.7%	8.2%
23	CCOC(=O)c1sc(=NC(=O)COc2ccccc2)n(C)c1C	-43.3%	-15.9%	55.0%	19.8%
24	CCOC(=O)c1sc(=NC(=O)CCSc2ccccc2)n(C)c1C	-12.3%	-11.3%	10µM*	18.4%
25	O=c1[nH]c2ccccc2n1CCC1CCCCC1	-50.1%	28.2µM*	63.9%	-15.8%
26	O=C(Nc1cc(S(=O)(=O)N2CCOCC2)ccc1Cl)c1cc([N+](=O)[O-])ccc1Cl	x	x	-85.6%	-26.0%
27	COc1ccc2cc(-c3ccon3)ccc2c1	-51.0%	-8.2%	10µM*	23.4%
28	COc1ccc2cc(-c3cc(C(=O)O)c4ccccc4n3)ccc2c1	u	25.7%	-94.7%	-9.0%
29	COc1ccc(Cl)cc1NC(=O)Cn1c(=O)n(Cc2ccco2)c(=O)c2cccnc21	3.2%	-6.5%	0.0%	x
30	Cc1ccc(Nc2nc3nonc3[nH]c2=O)cc1	-41.6%	-14.8%	11.2µM*	u

item	molecule	miR-21 reporter	Anesthetic bind	BRCA1 expr act	p53 reactivation
31	COc1ccccc1Nc1nc2nonc2[nH]c1=O	1.9%	-1.3%	-26.1%	1.3%
32	CCOC(=O)CCCCCCCCCCCCC1C=CCC1 (stereo unspecified)	x	-15.2%	x	x
33	COc1ccc(C(C)(C)C)cc1NC(=O)CCN1C(=O)NC(C)(C)C1=O	x	x	-5.1%	-0.8%
34	COC(=O)C(NC(=O)CCc1nnc2ccc(N3CCCCC3)nn12)C(C)C (stereo unspecified)	-17.3%	-3.6%	11.2µM*	u
35	COC(=O)c1sc(NC(=O)c2oc3ccccc3c2C)nc1C	-17.5%	-14.1%	7.08µM*	23.9%
36	COc1ccc(-c2nsc(NC(=O)c3oc4ccccc4c3C)n2)cc1	-2.1%	-11.2%	x	x
37	COc1ccccc1CN(C)C(=O)c1cc(-c2cccs2)nc2ccccc12	27.1%	-2.8%	-54.2%	-3.7%
38	O=C(/C=C/c1ccccc1Cl)NCCc1ccccc1	-53.9%	u	11.2µM*	u
